Measured values published in US12616739B2, “GLP-1 prodrugs and uses thereof” (Novo Nordisk A/S, priority 2020, dated 2026).

Assay: Prodrug to drug conversion half-life in vitro, PBS pH 7.4, 37° C.
Type: physicochemical
Method: General Methods for Measuring Conversion Half-Life
The assay was performed to investigate the conversion half-life of prodrug to drug of the prodrugs of the invention.
Peptide stock solutions were prepared by dissolving freeze-dried powder in PBS buffer to a target of 200 μM. PBS-buffer was Dulbecco's Phosphate Buffered Saline without CaCl2 and MgCl2, gibco 14190-094 adjusted to pH=7.4. The pH of the peptide stock solutions was adjusted to 7.4 with 0.02 M HCl or 0.02M NaOH. Samples were filled in Agilent HPLC vials with fixed insert. Vials were capped to prevent evaporation. The HPLC vials were incubated at 37° C. and samples were withdrawn at different time points over a period of 2 weeks, flash frozen at −80° C., and stored at −20° C. until analysis.
Sample analysis was carried out using UPLC coupled to UV detection at 215 nm and MS (UPLC-UV-MS). One μl of sample was injected on to a Waters Acquity UPLC with a flow-through-needle injection system and on to a Waters Acquity CSH C18 column (1*150 mm), with a particle size of 1.7 μm and held at 55° C. A flow-rate of 100 μl/min was delivered with a Binary solvent manager pump having 0.1% formic acid in water as solvent A and 0.1% formic acid in acetonitrile as solvent B. Gradient elution was carried out using 15-32% B from 0 to 4 min followed by 32 to 48% B from 4 to 54 min.
The identity of the prodrug was confirmed by MS and the peak purity, area %, from the UV signal at 215 nm was plotted as the natural logarithm against time and the slope (k) was used to calculate the first order half-life (T½)=T½=Ln(2)/k.

Row | SMILES | half-life
1 | CC[C@H](C)[C@H](NC(=O)[C@H](Cc1ccccc1)NC(=O)[C@H](CCC(=O)O)NC(=O)[C@H](CCCCNC(=O)COCCOCCNC(=O)COCCOCCNC(=O)CC[C@H](NC(=O)CCCCCCCCCCCCCCCCC(=O)O)C(=O)O)NC(=O)[C@H](C)NC(=O)[C@H](C)NC(=O)[C@H](CCC(N)=O)NC(=O)CNC(=O)[C@H](CCC(=O)O)NC(=O)[C@H](CC(C)C)NC(=O)[C@H](Cc1ccc(O)cc1)NC(=O)[C@H](CO)NC(=O)[C@H](CO)NC(=O)[C@@H](NC(=O)[C@H](CC(=O)O)NC(=O)[C@H](CO)NC(=O)[C@@H](NC(=O)[C@H](Cc1ccccc1)NC(=O)[C@@H](NC(=O)CNC(=O)[C@H](CCC(=O)O)NC(=O)C(C)(C)NC(=O)[C@H](Cc1c[nH]cn1)NC(=O)CN(CCNC(=O)[C@H](CCC(=O)O)NC(=O)[C@H](CCC(=O)O)NC(=O)CC[C@H](NC(=O)CCCCCCCCCCCCCCC(=O)O)C(=O)O)C(=O)CN)[C@@H](C)O)[C@@H](C)O)C(C)C)C(=O)N[C@@H](C)C(=O)N[C@@H](Cc1c[nH]c2ccccc12)C(=O)N[C@@H](CC(C)C)C(=O)N[C@H](C(=O)N[C@@H](CCCNC(=N)N)C(=O)NCC(=O)N[C@@H](CCCNC(=N)N)C(=O)NCC(=O)O)C(C)C [Chem. 22, Gly-N^α-2-[[(2S)-4-carboxy-2-[[(2S)-4-carboxy-2-[[(4S)-4-carboxy-4-(15-carboxypentadecanoylamino)butanoyl]amino]butanoyl]amino]butanoyl]amino]ethyl-Gly-semaglutide] | 173 h
2 | CC[C@H](C)[C@H](NC(=O)[C@H](Cc1ccccc1)NC(=O)[C@H](CCC(=O)O)NC(=O)[C@H](CCCCNC(=O)COCCOCCNC(=O)COCCOCCNC(=O)CC[C@H](NC(=O)CCCCCCCCCCCCCCCCC(=O)O)C(=O)O)NC(=O)[C@H](C)NC(=O)[C@H](C)NC(=O)[C@H](CCC(N)=O)NC(=O)CNC(=O)[C@H](CCC(=O)O)NC(=O)[C@H](CC(C)C)NC(=O)[C@H](Cc1ccc(O)cc1)NC(=O)[C@H](CO)NC(=O)[C@H](CO)NC(=O)[C@@H](NC(=O)[C@H](CC(=O)O)NC(=O)[C@H](CO)NC(=O)[C@@H](NC(=O)[C@H](Cc1ccccc1)NC(=O)[C@@H](NC(=O)CNC(=O)[C@H](CCC(=O)O)NC(=O)C(C)(C)NC(=O)[C@H](Cc1c[nH]cn1)NC(=O)CN(CCNC(=O)[C@H](CCCCN)NC(=O)CC[C@H](NC(=O)CCCCCCCCCCCCCCC(=O)O)C(=O)O)C(=O)CN)[C@@H](C)O)[C@@H](C)O)C(C)C)C(=O)N[C@@H](C)C(=O)N[C@@H](Cc1c[nH]c2ccccc12)C(=O)N[C@@H](CC(C)C)C(=O)N[C@H](C(=O)N[C@@H](CCCNC(=N)N)C(=O)NCC(=O)N[C@@H](CCCNC(=N)N)C(=O)NCC(=O)O)C(C)C [Chem. 23, Gly-N^α-2-[[(2S)-4-carboxy-2-[[(2S)-4-carboxy-2-[[(4S)-4-carboxy-4-(15-carboxypentadecanoylamino)butanoyl]amino]butanoyl]amino]butanoyl]amino]ethyl-Gly-semaglutide] | 132 h
3 | CC[C@H](C)[C@H](NC(=O)[C@H](Cc1ccccc1)NC(=O)[C@H](CCC(=O)O)NC(=O)[C@H](CCCCNC(=O)COCCOCCNC(=O)COCCOCCNC(=O)CC[C@H](NC(=O)CCCCCCCCCCCCCCCCC(=O)O)C(=O)O)NC(=O)[C@H](C)NC(=O)[C@H](C)NC(=O)[C@H](CCC(N)=O)NC(=O)CNC(=O)[C@H](CCC(=O)O)NC(=O)[C@H](CC(C)C)NC(=O)[C@H](Cc1ccc(O)cc1)NC(=O)[C@H](CO)NC(=O)[C@H](CO)NC(=O)[C@@H](NC(=O)[C@H](CC(=O)O)NC(=O)[C@H](CO)NC(=O)[C@@H](NC(=O)[C@H](Cc1ccccc1)NC(=O)[C@@H](NC(=O)CNC(=O)[C@H](CCC(=O)O)NC(=O)C(C)(C)NC(=O)[C@H](Cc1c[nH]cn1)NC(=O)CN(CCNC(=O)[C@H](CO)NC(=O)CC[C@H](NC(=O)CCCCCCCCCCCCCCC(=O)O)C(=O)O)C(=O)CN)[C@@H](C)O)[C@@H](C)O)C(C)C)C(=O)N[C@@H](C)C(=O)N[C@@H](Cc1c[nH]c2ccccc12)C(=O)N[C@@H](CC(C)C)C(=O)N[C@H](C(=O)N[C@@H](CCCNC(=N)N)C(=O)NCC(=O)N[C@@H](CCCNC(=N)N)C(=O)NCC(=O)O)C(C)C [Chem. 24, Gly-N^α-2-[[(2S)-2-[[(4S)-4-carboxy-4-(15-carboxypentadecanoylamino)butanoyl]amino]-3-hydroxypropanoyl]amino]ethyl-Gly-semaglutide] | 161 h
4 | CC[C@H](C)[C@H](NC(=O)[C@H](Cc1ccccc1)NC(=O)[C@H](CCC(=O)O)NC(=O)[C@H](CCCCNC(=O)COCCOCCNC(=O)COCCOCCNC(=O)CC[C@H](NC(=O)CCCCCCCCCCCCCCCCC(=O)O)C(=O)O)NC(=O)[C@H](C)NC(=O)[C@H](C)NC(=O)[C@H](CCC(N)=O)NC(=O)CNC(=O)[C@H](CCC(=O)O)NC(=O)[C@H](CC(C)C)NC(=O)[C@H](Cc1ccc(O)cc1)NC(=O)[C@H](CO)NC(=O)[C@H](CO)NC(=O)[C@@H](NC(=O)[C@H](CC(=O)O)NC(=O)[C@H](CO)NC(=O)[C@@H](NC(=O)[C@H](Cc1ccccc1)NC(=O)[C@@H](NC(=O)CNC(=O)[C@H](CCC(=O)O)NC(=O)C(C)(C)NC(=O)[C@H](Cc1c[nH]cn1)NC(=O)CN(CCNC(=O)CC[C@H](NC(=O)CCCCCCCCCCCCCCCCCCC(=O)O)C(=O)O)C(=O)CN)[C@@H](C)O)[C@@H](C)O)C(C)C)C(=O)N[C@@H](C)C(=O)N[C@@H](Cc1c[nH]c2ccccc12)C(=O)N[C@@H](CC(C)C)C(=O)N[C@H](C(=O)N[C@@H](CCCNC(=N)N)C(=O)NCC(=O)N[C@@H](CCCNC(=N)N)C(=O)NCC(=O)O)C(C)C [Chem. 27, Gly-N^α-2-[[(4S)-4-carboxy-4-(19-carboxynonadecanoylamino)butanoyl]amino]ethyl-Gly-semaglutide] | 113 h

The remaining lines, values ahead:

Row | half-life | SMILES
5 | 146 h | CC[C@H](C)[C@H](NC(=O)[C@H](Cc1ccccc1)NC(=O)[C@H](CCC(=O)O)NC(=O)[C@H](CCCCNC(=O)COCCOCCNC(=O)COCCOCCNC(=O)CC[C@H](NC(=O)CCCCCCCCCCCCCCCCC(=O)O)C(=O)O)NC(=O)[C@H](C)NC(=O)[C@H](C)NC(=O)[C@H](CCC(N)=O)NC(=O)CNC(=O)[C@H](CCC(=O)O)NC(=O)[C@H](CC(C)C)NC(=O)[C@H](Cc1ccc(O)cc1)NC(=O)[C@H](CO)NC(=O)[C@H](CO)NC(=O)[C@@H](NC(=O)[C@H](CC(=O)O)NC(=O)[C@H](CO)NC(=O)[C@@H](NC(=O)[C@H](Cc1ccccc1)NC(=O)[C@@H](NC(=O)CNC(=O)[C@H](CCC(=O)O)NC(=O)C(C)(C)NC(=O)[C@H](Cc1c[nH]cn1)NC(=O)CN(CCNC(=O)CNC(=O)CC[C@H](NC(=O)CCCCCCCCCCCCCCC(=O)O)C(=O)O)C(=O)CN)[C@@H](C)O)[C@@H](C)O)C(C)C)C(=O)N[C@@H](C)C(=O)N[C@@H](Cc1c[nH]c2ccccc12)C(=O)N[C@@H](CC(C)C)C(=O)N[C@H](C(=O)N[C@@H](CCCNC(=N)N)C(=O)NCC(=O)N[C@@H](CCCNC(=N)N)C(=O)NCC(=O)O)C(C)C [Chem. 25, Gly-N^α-2-[[2-[[(4S)-4-carboxy-4-(15-carboxypentadecanoylamino)butanoyl]amino]acetyl]amino]ethyl-Gly-semaglutide]
6 | 166 h | CC[C@H](C)[C@H](NC(=O)[C@H](Cc1ccccc1)NC(=O)[C@H](CCC(=O)O)NC(=O)[C@H](CCCCNC(=O)COCCOCCNC(=O)COCCOCCNC(=O)CC[C@H](NC(=O)CCCCCCCCCCCCCCCCC(=O)O)C(=O)O)NC(=O)[C@H](C)NC(=O)[C@H](C)NC(=O)[C@H](CCC(N)=O)NC(=O)CNC(=O)[C@H](CCC(=O)O)NC(=O)[C@H](CC(C)C)NC(=O)[C@H](Cc1ccc(O)cc1)NC(=O)[C@H](CO)NC(=O)[C@H](CO)NC(=O)[C@@H](NC(=O)[C@H](CC(=O)O)NC(=O)[C@H](CO)NC(=O)[C@@H](NC(=O)[C@H](Cc1ccccc1)NC(=O)[C@@H](NC(=O)CNC(=O)[C@H](CCC(=O)O)NC(=O)C(C)(C)NC(=O)[C@H](Cc1c[nH]cn1)NC(=O)CN(CCNC(=O)CC[C@H](NC(=O)CC[C@H](NC(=O)CCCCCCCCCCCCCCCCC(=O)O)C(=O)O)C(=O)O)C(=O)CN)[C@@H](C)O)[C@@H](C)O)C(C)C)C(=O)N[C@@H](C)C(=O)N[C@@H](Cc1c[nH]c2ccccc12)C(=O)N[C@@H](CC(C)C)C(=O)N[C@H](C(=O)N[C@@H](CCCNC(=N)N)C(=O)NCC(=O)N[C@@H](CCCNC(=N)N)C(=O)NCC(=O)O)C(C)C [Chem. 28, Gly-N^α-2-[[(4S)-4-carboxy-4-[[(4S)-4-carboxy-4-(17-carboxyheptadecanoylamino)butanoyl]amino]butanoyl]amino]ethyl-Gly-semaglutide]
